For orientation: Ki means the dissociation constant of the complex between target and ligand, obtained from inhibition or displacement.

For this assay, the target named is Acetylcholinesterase (Homo sapiens, UniProt P22303). Nature of the assay: Reversible inhibition of recombinant human recombinant AChE using acetylthiocholine iodide as substrate by Ellman spectrophotometric method. A general note: In Ellman's method for cholinesterases, released thiocholine reacts with DTNB.
Consider `NC(=O)c1cc[n+](CCC[n+]2ccc(/C=N/O)c(Cl)c2)cc1`, for which the Ki is 42 µM.
For `NC(=O)c1cc[n+](CCCC[n+]2cc(Cl)c(/C=N/O)c(Cl)c2)cc1` the value was 12 µM; for `NC(=O)c1cc[n+](CCCC[n+]2ccc(/C=N/O)c(Cl)c2)cc1`, 36 µM.
For `NC(=O)c1cc[n+](C/C=C/C[n+]2cc(Cl)c(/C=N/O)c(Cl)c2)cc1` the value was 22 µM; for `NC(=O)c1cc[n+](C/C=C/C[n+]2ccc(/C=N/O)c(Cl)c2)cc1`, 24 µM.
For `NC(=O)c1cc[n+](CCC[n+]2cc(Cl)c(/C=N/O)c(Cl)c2)cc1` the value was 21 µM.

The values above are taken from ChEMBL document CHEMBL4257577.
